Molecular target: T1, carbonic anhydrase 9 (Homo sapiens, UniProt Q16790)
T1 construct: His tag; purchased Sino Biological
Assay: Binding of purified Fn-AAZ clones to carbonic anhydrase 9 (FIG. 14A-B)
Conditions: purified clone
Source text: Fn-AAZ clones selected for binding to carbonic anhydrase 9 were expressed, purified, and sequenced according to methods well-known to one of skill in the art. FIGS. 13A-C show the results of an exemplary expression and purification of an Fn-AAZ clone. As shown in FIG. 14A-B, two Fn-AAZ conjugates were further characterized following expression and purification. A first Fn-AAZ clone (Clone 0.3.10) was identified that has 10-fold higher affinity to carbonic anhydrase 9 when compared to Fn that has not been conjugated to AAZ (FIG. 14A). The sequence of the selected fibronectin type III domain of the first Fn-AAZ conjugate corresponds to SEQ ID NO:3. A second Fn-AAZ clone (Clone 0.3.9) was identified that has approximately 6-fold higher affinity to carbonic anhydrase 9 when compared to Fn that has not been conjugated to AAZ (FIG. 14B). The sequence of the selected fibronectin type III domain of the second Fn-AAZ conjugate corresponds to SEQ ID NO:4. The sequences of the selected fibronectin type III domains of several other Fn-AAZ conjugates having high affinity and selectivity for carbonic anhydrase 9 are provided in SEQ ID NOs: 5-8.

B1: Clone 0.3.9: purified Fn-AAZ clone: fibronectin type III domain of SEQ ID NO:4 conjugated to acetazolamide (AAZ) (conjugate)
chain: MASSSDSPRNLEVTNATPNSLTISWDDSYCVIYYRITYGETGGNSPSQEFTVPGYTNSVTISGLKPGQDYTITVYAVTDYSKLDPSNPISINYRTEIDKPSQGS
modifications: acetazolamide conjugate; Type III domain of human fibronectin
  fold higher affinity to carbonic anhydrase 9 compared to Fn that has not been conjugated to AAZ: approximately 6 fold

Source: patent US20190144503A1, “METHODS FOR THE IDENTIFICATION OF BIFUNCTIONAL COMPOUNDS” (Regents of the University of Minnesota, priority 2016, published 2019)
